The values below are quoted from earlier work in patent US20250099481A1, “BCL-2 INHIBITORS” (Newave Pharmaceutical Inc., priority 2022, published 2025).

By UniProt entry, the sequences of proteins in these tests, tags left out.
UniProt P10415, whole entry: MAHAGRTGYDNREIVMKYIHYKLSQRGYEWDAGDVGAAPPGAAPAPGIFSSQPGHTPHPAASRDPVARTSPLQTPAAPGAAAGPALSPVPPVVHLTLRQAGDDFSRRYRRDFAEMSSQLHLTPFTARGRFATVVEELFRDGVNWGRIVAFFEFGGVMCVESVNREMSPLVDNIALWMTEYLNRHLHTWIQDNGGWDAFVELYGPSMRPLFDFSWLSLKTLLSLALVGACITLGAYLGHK

The series addresses Bcl-2 (Homo sapiens, UniProt P10415).

With `CC1(C)CCC(c2ccc(Cl)cc2)=C(CN2CCN(c3ccc(C(=O)NS(=O)(=O)c4ccc(N[C@H](CCN5CCOCC5)CSc5ccccc5)c(S(=O)(=O)C(F)(F)F)c4)cc3)CC2)C1` [ABT-263], the Ki was under 1 nM.
